Here are results for five molecules from ChEMBL document CHEMBL2417457, “Octahydropyrrolo[3,4-c]pyrrole negative allosteric modulators of mGlu1” (Bioorg Med Chem Lett, 2013).

Calls of active or inactive are those of the source. The calls are words filed in the database; no cut-off is given here.

Assay [1] concerns the target T1, Metabotropic glutamate receptor 1 (Homo sapiens, UniProt Q13255). The assay can be described thus: Negative allosteric modulation of human mGlu1 receptor expressed in HEK293A TREx cells assessed as calcium flux at 30 uM after 45 mins relative to glutamate. The assay is classed as functional, cell-based. Particulars: HEK293-A. An outline of the steps: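 Tetracycline-induced HEK293A TREx cells expressing human mGlu1 were loaded with Fluo-4 for Ca2+ flux. Test compound was given at 30 μM. Response amplitude is expressed as a percentage of the maximal response to 100 μM glutamate, averaged over n ≥ 3.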

Assay [2] has as its target T1, Metabotropic glutamate receptor 1. The assay can be described thus: Negative allosteric modulation of human mGlu1 receptor expressed in HEK293A TREx cells assessed as calcium flux after 45 mins. It is filed as functional, cell-based, HEK293-A. An outline of the steps: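 HEK293A TREx cells stably expressing human mGlu1 were induced overnight with 50 ng/mL tetracycline at 37 °C. Ten-point 1:3 compound series were added for 2.3 min, then an EC20 of glutamate, then an EC80 of glutamate 1.9 min later. Ca2+ flux was read for 1.7 min. Values are the average of n ≥ 3.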

The target is the same in assay [3]. The assay can be described thus: Negative allosteric modulation of human mGlu1 receptor up to 30 uM.

For `O=C(C1CCCCCCC1)N1C[C@@H]2CN(c3ccccn3)C[C@@H]2C1`, the %max in assay [1] is 14.9%. Also, the IC50 in assay [2] is over 10 µM. On to `O=C(N1CC2CCC(C2)C1)N1C[C@@H]2CN(c3ccccn3)C[C@@H]2C1`, for which the IC50 in assay [2] was found to be 5.16 µM.

For the molecule `O=C(CC12CC3CC(CC(C3)C1)C2)N1C[C@@H]2CN(c3ccccn3)C[C@@H]2C1`, the IC50 in assay [2] turned out to be 1.43 µM. Regarding `CC(C)(C)C(=O)N1C[C@@H]2CN(c3ccccn3)C[C@@H]2C1`, the outcome in assay [3] was inactive.

Consider `N#Cc1cccnc1N1C[C@H]2CN(C(=O)C34CC5CC(CC(C5)C3)C4)C[C@H]2C1`, for which, in assay [2], the IC50 is 5.59 µM.
